ChEMBL document CHEMBL1125664, “Quaternary salts of 2-[(hydroxyimino)methyl]imidazole. 4. Effect of various side-chain substituents on therapeutic activity against anticholinesterase intoxication” (1991)

Molecular target: T1, Acetylcholinesterase (Mus musculus) (UniProt P21836)
T1 sequence (whole entry): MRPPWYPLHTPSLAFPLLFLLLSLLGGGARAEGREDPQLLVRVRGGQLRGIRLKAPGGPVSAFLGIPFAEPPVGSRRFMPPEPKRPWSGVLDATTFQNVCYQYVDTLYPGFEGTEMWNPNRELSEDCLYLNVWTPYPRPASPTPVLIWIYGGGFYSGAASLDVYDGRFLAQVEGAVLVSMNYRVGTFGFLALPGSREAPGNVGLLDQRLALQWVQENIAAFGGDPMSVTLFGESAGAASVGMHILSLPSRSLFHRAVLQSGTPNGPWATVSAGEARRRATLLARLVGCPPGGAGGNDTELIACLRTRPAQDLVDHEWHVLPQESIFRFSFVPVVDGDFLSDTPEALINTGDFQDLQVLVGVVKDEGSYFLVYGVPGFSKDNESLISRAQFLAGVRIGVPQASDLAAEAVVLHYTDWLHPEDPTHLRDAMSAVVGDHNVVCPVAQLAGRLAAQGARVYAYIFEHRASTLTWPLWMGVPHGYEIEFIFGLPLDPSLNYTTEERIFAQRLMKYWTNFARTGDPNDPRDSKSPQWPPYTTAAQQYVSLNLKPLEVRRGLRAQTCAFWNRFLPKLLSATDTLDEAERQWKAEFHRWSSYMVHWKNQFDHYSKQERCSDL
Experiment: Antidotal activity measured against soman in mice and activity expressed as the no. of survivors noted at 24 hr out of population of 10 mice each exposed intramuscularly at the dose 1/4 of 2LD50 of the compound

SMILES	Survival
COCCOCn1cc[n+](C)c1/C=N/O	4
C[n+]1ccn(CCCCOC(=O)c2ccccc2O)c1/C=N/O	2
C[n+]1ccn(CCF)c1/C=N/O	1
C[n+]1ccn(COCCCBr)c1/C=N/O	4
C[n+]1ccn(COCC[Si](C)(C)C)c1/C=N/O	1
C[n+]1ccn(CCS(C)(=O)=O)c1/C=N/O	9
CN(CCn1cc[n+](C)c1/C=N/O)S(=O)(=O)c1ccccc1	8
C[n+]1ccn(CCBr)c1/C=N/O	0
C[n+]1ccn(COCC[N+](=O)[O-])c1/C=N/O	2
CN(C)CCn1cc[n+](C)c1/C=N/O	10
C[n+]1ccn(CC[N+](=O)[O-])c1/C=N/O	2
C[n+]1ccn(CCOCCCl)c1/C=N/O	8
C[n+]1ccn(CCCCC#N)c1/C=N/O	1
CN(CCn1cc[n+](C)c1/C=N/O)S(=O)(=O)C(F)(F)F	6
C[n+]1ccn(COCCC[Si](C)(C)C)c1/C=N/O	0
C[n+]1ccn(COCCCCCl)c1/C=N/O	0
COC(=O)CCCCCn1cc[n+](C)c1/C=N/O	0
C[n+]1ccn(COCC(C)(C)CBr)c1/C=N/O	4
C#CCCOC[n+]1ccn(C)c1/C=N/O	10
C[n+]1ccn(CCOCCF)c1/C=N/O	9
